Test results taken from patent US5705611A, “Human GM-CSF receptor component” (Schering Corporation, priority 1993, dated 1998).

T1: β-chain of the human GM-CSF receptor (pKH97) on COS 7 cells (Homo sapiens, UniProt P32927)
T1 construct: expressed in transfected cells; host or cells: COS 7 cells (transient, DEAE-dextran)
T1 sequence (P32927 17-897 I454T): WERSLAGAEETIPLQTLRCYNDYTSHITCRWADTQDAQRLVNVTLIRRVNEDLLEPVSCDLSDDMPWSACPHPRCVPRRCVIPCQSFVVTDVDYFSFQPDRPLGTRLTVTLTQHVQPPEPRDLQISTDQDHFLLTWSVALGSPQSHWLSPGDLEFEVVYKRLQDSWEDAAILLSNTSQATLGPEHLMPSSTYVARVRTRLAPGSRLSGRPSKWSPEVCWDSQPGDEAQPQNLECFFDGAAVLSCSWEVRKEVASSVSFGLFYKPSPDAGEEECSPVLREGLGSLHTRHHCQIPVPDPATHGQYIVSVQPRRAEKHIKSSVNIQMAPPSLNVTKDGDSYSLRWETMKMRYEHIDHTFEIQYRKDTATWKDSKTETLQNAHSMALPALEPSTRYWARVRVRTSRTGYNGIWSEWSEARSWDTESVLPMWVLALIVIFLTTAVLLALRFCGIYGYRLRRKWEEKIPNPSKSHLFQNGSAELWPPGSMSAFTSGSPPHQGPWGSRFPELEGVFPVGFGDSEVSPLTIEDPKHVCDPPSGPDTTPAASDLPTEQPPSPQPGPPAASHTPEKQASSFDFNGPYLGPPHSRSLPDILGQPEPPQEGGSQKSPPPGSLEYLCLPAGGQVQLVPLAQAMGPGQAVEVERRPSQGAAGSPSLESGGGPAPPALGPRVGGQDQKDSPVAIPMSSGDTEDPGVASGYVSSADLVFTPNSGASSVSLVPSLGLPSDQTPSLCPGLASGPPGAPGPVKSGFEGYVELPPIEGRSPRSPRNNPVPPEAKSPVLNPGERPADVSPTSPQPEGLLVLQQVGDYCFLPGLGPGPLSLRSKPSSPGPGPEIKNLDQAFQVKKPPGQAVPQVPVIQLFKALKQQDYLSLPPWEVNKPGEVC


Target: T1, β-chain of the human GM-CSF receptor (pKH97) on COS 7 cells
Test: Binding of iodinated human cytokines to COS 7 cells transfected with pKH97 alone
Conditions: COS 7 cells transfected with pKH97, 72 hours after transfection
Method: Res. Commun., Vol. 80, pgs. […] Generally, the binding assay is conducted as described by Lowenthal et al., J. Immunol., Vol 140, pgs.

specific binding (iodinated cytokine at 1 nM)	specific binding (iodinated cytokine at 20 nM)	Molecule
No specific binding	–	IL-2: human cytokine, iodinated, tested for binding to pKH97-transfected COS 7 cells
–	No specific binding	IL-3: human cytokine, iodinated, tested for binding to pKH97-transfected COS 7 cells (protein, UniProt P08700 20-152, looked up, 125I-labelled) Interleukin-3: APMTQTTPLKTSWVNCSNMIDEIITHLKQPPLPLLDFNNLNGEDQDILMENNLRRPNLEAFNRAVKSLQNASAIESILKNLLPCLPLATAAPTRHPIHIKDGDWNEFRRKLTFYLKTLENAQAQQTTLSLAIF
